Data published in PubChem BioAssay (EPA / NIEHS).
Several values for one entry are separate records, joined by “and”; a condition that tells them apart may be missing. Equal values may be shown once. The list shows a part of the results, in another mix than the full data. Inconclusive results are not listed. The source holds several records for some structures; these can differ, active in one and inactive in another. Activity calls are given as the source filed them. The calls were made as follows: active = hit-call score of the fitted dose curve at least 0.9, where 1 is the maximum; inconclusive = response in the unintended direction; inactive = score below 0.9.

The chains behind the UniProt entries cited, without tags or fusion partners. Where a name states a change or a piece, a line headed by the entry shows the natural chain unless it says otherwise.
UniProt P03372, whole entry, looked up: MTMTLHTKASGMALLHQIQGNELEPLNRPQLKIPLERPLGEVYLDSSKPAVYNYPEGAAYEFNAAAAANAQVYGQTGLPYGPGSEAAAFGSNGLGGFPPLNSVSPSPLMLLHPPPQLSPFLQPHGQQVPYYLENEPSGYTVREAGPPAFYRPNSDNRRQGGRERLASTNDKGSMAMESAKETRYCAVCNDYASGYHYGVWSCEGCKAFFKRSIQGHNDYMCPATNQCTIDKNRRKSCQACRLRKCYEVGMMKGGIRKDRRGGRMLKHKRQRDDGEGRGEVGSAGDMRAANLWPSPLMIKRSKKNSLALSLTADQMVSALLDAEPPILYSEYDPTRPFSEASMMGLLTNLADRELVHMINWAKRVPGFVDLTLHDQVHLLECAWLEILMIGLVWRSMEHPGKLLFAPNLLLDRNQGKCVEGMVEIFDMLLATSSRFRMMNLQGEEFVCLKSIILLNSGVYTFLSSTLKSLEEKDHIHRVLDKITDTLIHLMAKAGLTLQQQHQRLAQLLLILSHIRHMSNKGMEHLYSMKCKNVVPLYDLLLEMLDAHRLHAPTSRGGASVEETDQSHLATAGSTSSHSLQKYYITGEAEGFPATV
UniProt O75469: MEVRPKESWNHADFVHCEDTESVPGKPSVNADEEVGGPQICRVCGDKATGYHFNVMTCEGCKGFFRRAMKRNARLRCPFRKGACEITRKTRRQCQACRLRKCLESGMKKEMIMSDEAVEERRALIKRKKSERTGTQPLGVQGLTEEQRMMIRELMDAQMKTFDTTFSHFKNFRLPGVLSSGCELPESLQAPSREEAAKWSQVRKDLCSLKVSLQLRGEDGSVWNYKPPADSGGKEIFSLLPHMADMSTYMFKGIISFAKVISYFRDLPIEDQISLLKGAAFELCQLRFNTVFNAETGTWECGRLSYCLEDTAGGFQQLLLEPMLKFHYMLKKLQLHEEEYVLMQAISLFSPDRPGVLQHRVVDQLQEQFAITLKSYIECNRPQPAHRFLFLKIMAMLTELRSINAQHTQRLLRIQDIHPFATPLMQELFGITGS
UniProt P19785, whole entry, looked up: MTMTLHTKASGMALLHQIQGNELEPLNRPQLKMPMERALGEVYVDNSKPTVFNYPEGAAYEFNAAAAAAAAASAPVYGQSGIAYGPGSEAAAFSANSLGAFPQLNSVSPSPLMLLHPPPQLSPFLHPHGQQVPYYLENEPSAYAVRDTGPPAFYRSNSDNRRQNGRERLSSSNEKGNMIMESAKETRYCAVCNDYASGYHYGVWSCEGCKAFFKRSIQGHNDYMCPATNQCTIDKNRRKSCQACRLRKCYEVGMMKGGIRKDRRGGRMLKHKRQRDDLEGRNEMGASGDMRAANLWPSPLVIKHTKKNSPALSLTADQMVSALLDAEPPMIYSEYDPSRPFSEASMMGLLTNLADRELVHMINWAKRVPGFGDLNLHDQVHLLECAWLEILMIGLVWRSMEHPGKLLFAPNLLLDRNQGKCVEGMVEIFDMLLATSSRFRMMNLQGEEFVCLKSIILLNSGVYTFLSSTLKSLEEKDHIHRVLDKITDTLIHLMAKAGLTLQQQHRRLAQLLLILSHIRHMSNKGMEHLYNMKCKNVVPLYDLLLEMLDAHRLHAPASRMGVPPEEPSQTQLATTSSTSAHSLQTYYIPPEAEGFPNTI
UniProt P10275: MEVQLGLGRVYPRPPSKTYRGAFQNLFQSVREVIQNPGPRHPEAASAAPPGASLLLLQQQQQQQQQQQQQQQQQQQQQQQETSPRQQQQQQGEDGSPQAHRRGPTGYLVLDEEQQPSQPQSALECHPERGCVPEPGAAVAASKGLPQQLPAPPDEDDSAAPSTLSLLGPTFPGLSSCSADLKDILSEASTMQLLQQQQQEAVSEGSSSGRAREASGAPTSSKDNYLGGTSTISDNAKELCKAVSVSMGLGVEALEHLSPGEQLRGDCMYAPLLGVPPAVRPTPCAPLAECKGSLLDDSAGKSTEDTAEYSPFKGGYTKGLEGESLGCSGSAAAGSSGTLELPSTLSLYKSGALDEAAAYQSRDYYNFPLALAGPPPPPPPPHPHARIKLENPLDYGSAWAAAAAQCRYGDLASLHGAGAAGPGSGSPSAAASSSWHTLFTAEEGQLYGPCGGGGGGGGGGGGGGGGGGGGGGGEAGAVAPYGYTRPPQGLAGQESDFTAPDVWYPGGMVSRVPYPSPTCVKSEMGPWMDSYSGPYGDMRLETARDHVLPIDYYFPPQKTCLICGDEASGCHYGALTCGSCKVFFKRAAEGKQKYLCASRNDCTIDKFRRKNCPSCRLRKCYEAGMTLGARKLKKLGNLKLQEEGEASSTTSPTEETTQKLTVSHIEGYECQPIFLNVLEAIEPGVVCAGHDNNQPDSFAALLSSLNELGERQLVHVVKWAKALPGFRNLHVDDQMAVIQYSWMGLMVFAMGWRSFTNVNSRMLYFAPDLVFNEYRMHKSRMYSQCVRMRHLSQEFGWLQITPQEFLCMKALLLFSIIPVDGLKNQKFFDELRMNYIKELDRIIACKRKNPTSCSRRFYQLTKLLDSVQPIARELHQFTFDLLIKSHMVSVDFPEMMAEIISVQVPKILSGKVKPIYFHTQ
UniProt P06401: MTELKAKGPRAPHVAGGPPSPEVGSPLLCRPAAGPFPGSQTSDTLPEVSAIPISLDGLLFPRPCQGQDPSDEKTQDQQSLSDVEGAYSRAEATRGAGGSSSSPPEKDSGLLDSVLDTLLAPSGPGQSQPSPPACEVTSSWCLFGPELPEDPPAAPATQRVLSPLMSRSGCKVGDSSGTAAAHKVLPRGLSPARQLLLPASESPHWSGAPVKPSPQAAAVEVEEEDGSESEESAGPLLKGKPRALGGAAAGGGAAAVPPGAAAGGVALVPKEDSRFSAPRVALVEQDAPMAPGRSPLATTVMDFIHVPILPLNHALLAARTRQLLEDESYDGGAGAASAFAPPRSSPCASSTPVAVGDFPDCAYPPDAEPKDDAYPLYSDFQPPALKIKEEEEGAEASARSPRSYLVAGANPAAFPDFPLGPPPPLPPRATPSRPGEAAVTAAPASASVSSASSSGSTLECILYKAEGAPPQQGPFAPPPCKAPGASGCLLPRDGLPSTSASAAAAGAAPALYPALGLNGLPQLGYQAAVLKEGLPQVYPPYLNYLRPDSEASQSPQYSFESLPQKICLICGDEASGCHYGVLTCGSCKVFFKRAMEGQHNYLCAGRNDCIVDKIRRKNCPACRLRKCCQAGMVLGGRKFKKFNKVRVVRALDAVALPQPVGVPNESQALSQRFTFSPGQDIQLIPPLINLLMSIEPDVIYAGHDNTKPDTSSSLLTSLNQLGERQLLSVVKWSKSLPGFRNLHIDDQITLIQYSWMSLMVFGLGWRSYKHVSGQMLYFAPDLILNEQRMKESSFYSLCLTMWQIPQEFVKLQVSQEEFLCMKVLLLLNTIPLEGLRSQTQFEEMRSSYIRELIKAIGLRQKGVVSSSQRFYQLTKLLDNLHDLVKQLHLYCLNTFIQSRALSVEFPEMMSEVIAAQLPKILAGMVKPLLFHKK
UniProt P04150: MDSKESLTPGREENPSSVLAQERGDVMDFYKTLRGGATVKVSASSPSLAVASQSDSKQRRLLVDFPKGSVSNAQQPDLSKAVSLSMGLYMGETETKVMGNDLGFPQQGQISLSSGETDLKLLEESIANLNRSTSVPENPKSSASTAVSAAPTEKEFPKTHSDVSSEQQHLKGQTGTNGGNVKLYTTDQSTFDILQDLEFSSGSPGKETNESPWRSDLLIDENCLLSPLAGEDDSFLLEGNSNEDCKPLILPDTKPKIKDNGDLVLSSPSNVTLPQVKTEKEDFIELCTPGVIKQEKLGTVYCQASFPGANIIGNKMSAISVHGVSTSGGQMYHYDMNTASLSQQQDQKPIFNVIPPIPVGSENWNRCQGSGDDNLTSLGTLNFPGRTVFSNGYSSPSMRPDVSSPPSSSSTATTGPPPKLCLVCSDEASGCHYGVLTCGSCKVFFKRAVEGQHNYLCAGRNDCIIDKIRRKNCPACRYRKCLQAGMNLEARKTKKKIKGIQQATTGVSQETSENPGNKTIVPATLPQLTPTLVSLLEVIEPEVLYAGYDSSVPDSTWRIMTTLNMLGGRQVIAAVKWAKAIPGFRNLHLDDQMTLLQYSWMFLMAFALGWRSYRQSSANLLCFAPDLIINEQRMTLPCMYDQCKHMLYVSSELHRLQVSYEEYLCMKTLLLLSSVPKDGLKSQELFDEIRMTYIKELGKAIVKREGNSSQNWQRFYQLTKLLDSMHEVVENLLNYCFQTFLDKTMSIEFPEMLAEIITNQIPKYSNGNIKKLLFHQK
UniProt P37231: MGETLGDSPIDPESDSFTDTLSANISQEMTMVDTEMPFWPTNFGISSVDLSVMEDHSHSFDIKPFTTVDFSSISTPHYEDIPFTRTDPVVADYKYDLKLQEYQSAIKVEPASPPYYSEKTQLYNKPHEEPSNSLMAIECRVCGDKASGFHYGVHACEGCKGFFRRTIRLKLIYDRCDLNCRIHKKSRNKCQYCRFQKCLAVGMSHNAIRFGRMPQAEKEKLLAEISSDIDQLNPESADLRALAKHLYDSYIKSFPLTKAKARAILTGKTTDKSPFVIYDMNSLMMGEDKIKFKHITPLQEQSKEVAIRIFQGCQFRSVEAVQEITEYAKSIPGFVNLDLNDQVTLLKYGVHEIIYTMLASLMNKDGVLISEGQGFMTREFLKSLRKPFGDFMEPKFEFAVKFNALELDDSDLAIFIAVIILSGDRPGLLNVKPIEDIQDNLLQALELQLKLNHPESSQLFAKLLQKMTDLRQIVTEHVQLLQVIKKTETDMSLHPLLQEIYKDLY
UniProt Q96RI1: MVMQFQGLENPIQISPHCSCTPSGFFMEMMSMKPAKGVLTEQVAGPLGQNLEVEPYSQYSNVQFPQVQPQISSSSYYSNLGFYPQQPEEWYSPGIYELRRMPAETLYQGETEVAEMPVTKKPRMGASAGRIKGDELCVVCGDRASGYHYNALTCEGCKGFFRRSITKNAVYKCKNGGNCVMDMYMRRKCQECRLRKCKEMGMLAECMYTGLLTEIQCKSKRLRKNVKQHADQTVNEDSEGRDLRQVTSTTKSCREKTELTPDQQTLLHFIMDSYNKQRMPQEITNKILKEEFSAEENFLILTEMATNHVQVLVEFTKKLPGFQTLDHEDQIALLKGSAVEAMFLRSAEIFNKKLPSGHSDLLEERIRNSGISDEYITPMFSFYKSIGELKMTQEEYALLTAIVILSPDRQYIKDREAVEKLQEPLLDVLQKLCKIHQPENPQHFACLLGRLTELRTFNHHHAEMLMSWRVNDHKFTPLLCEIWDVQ
UniProt P15207: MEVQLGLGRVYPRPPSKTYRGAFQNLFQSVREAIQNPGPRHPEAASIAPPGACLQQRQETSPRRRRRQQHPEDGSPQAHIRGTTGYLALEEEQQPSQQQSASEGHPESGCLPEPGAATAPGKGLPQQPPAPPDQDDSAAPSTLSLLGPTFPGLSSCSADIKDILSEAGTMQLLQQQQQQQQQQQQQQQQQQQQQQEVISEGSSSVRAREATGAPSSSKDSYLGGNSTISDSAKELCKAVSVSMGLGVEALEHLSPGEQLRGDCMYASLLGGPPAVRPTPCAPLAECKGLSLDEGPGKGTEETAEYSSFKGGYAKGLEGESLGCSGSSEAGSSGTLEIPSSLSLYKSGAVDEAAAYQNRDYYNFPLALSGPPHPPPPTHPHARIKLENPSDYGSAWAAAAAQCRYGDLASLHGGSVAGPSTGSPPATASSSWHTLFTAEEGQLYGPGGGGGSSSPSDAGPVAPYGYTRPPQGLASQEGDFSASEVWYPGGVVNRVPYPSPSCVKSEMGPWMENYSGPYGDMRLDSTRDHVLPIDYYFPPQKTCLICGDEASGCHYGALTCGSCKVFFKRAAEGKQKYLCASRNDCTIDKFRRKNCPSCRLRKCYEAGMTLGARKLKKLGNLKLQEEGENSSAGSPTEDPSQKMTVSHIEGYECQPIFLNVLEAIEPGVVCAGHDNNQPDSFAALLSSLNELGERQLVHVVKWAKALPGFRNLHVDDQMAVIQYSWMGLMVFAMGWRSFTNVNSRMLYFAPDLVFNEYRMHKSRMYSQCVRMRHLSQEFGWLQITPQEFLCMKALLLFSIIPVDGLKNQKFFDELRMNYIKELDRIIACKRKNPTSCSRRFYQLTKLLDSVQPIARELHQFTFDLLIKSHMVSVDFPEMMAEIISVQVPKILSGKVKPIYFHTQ

Assays:
[1] = target: Estrogen receptor (Homo sapiens) (UniProt P03372); assay: OT_ER_ERaERa_1440: Odyssey Thera (OT) 24-hour HEK293T Protein-Complementation Assay for Estrogen Receptor-alpha/-alpha Homodimer (AID 2283349);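 also: hits raise fluorescence above DMSO for agonists and antagonists alike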
How it was run: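 Protein-fragment complementation between two human ERα ligand-binding domains (aa 310-547) in stably transfected HEK293T cells was monitored after 24 h treatment, using fluorescence intensity relative to vehicle controls.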

[2] = target: Estrogen receptor (Homo sapiens) (UniProt P03372); assay: OT_ER_ERaERa_0480: Odyssey Thera (OT) 8-hour HEK293T Protein-Complementation Assay for Estrogen Receptor-alpha/-alpha Homodimer (AID 2283351);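 also: rise in fluorescence from reassembled reporter fragments on ERα LBD homodimer in nucleus or whole cell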
How it was run: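 HEK293T cells stably expressing the human ERα ligand-binding domain (aa 310-547) as a homodimer PCA were dosed with compound for 8 h. Gain of fluorescence intensity versus DMSO vehicle was read by laser scanning cytometry.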

[3] = target: T1, Estrogen receptor (Homo sapiens) + Estrogen receptor beta (Homo sapiens) (UniProt P03372+Q92731); assay: OT_ER_ERaERb_1440: Odyssey Thera (OT) 24-hour HEK293T Protein-Complementation Assay for Estrogen Receptor-alpha/-beta Homodimer (AID 2283356);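 also: heteromer of ER alpha and ER beta binding domains; hits raise reporter fluorescence and both agonists and antagonists give an increase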
How it was run: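 Heterodimerisation of ERα (aa 310-547) and ERβ (aa 263-489) ligand binding domains was tracked as fluorescence gain in stably transfected HEK293T cells following 24 h dosing, normalised to DMSO controls.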

[4] = target: Estrogen receptor beta (Homo sapiens) (UniProt Q92731); assay: OT_ER_ERbERb_0480: Odyssey Thera (OT) 8-hour HEK293T Protein-Complementation Assay for Estrogen Receptor-beta/-beta Homodimer (AID 2283357);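 also: active means signal gain over DMSO baseline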
How it was run: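 Cells (HEK293T, stable ER-beta LBD PCA pair) are treated 8 hours, fixed and Draq5-stained; signal is fluorescence intensity increase relative to vehicle, fitted in the gain direction.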

[5] = target: Nuclear receptor subfamily 1 group I member 2 (Homo sapiens) (UniProt O75469); assay: NVS_NR_hPXR: NovaScreen (NVS) Nuclear Receptor Binding Assay for human Pregnane X Receptor (PXR) (AID 2283365);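 also: a drop in FRET signal versus DMSO baseline means the compound binds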
How it was run: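 Binding was measured by time-resolved fluorescence resonance energy transfer after a 2 h exposure of extracted human PXR protein without cells. Compounds were first tested at 25 uM in duplicate, with concentration series for actives; DMSO defined baseline.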

[6] = target: mouse Estrogen Receptor alpha (Era), Esr1 (gene 13982) (UniProt P19785); assay: NVS_NR_mERa: NovaScreen (NVS) Nuclear Receptor Binding Assay for mouse Estrogen Receptor alpha (Era) (AID 2283378);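 also: hit means loss of bound radioligand signal relative to DMSO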
How it was run: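 Test chemicals competed against a specific radioligand for binding to cell-free mouse Era. Duplicate wells at 25 uM were read 18 hours later by filter-based radiodetection, with loss of signal against DMSO scored as activity.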

[7] = target: human Norepinephrine Transporter (NET), SLC6A2 (gene 6530) (UniProt P23975); assay: NVS_TR_hNET: NovaScreen (NVS) Transporter Assay for human Norepinephrine Transporter (NET) (AID 2283377);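 also: cell-free membrane protein extracted from CHO cells expressing human NET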
How it was run: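 Scintillation counts of filter-retained radioligand served as the readout, taken 1 h post-dosing in a cell-free CHO-derived system. Test chemicals ran first at 25 uM in duplicate; confirmed hits were retested across concentrations.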

[8] = target: Androgen Receptor/SRC-1 Co-activator, AR (gene 367) (UniProt P10275); assay: OT_AR_ARSRC1_0960: Odyssey Thera (OT) 16-hour HEK293T Protein-Complementation Assay for Androgen Receptor/SRC-1 Co-activator (AID 2283353);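 also: actives raise the signal above DMSO so potency reflects increased AR and SRC-1 complex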
How it was run: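 HEK293T cells stably expressing AR and SRC-1 fused to split Venus YFP fragments via (Gly4Ser)2 linkers were dosed for 16 h. Nuclear/cytoplasmic fluorescence ratio at 488 nm, ≥400 cells per image, fitted for gain of signal versus DMSO.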

[9] = target: Androgen Receptor/SRC-1 Co-activator, AR (gene 367) (UniProt P10275); assay: OT_AR_ARSRC1_0480: Odyssey Thera (OT) 8-hour HEK293T Protein-Complementation Assay for Androgen Receptor/SRC-1 Co-activator (AID 2283354);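 also: hits raise the complementation signal above DMSO so AC50 marks enhancers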
How it was run: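 Measures AR/SRC-1 binding by Venus YFP fragment complementation in HEK293T stable lines at 8 h post-dose. Imaging quantifies the 488nm nucleus/cytoplasm ratio in ≥400 cells; DMSO defines baseline.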

[10] = target: Agonist Androgen Response Element (ARE), AR (gene 367) (UniProt P10275); assay: OT_AR_ARELUC_AG_1440: Odyssey Thera (OT) 24-hour CHO-K1 Luciferase Assay for Agonist Androgen Response Element (ARE) (AID 2283379)
How it was run: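 Agonist mode, 24 h exposure in CHO-K1 ARE-luciferase cells; values reflect luminescence induction over vehicle.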

PGR (gene 5241) = PGR (gene 5241) (UniProt P06401); assay: NVS_NR_hPR: NovaScreen (NVS) Nuclear Receptor Binding Assay for human Progestron Receptor (PR) (AID 2283360);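 also: active means loss of bound radioligand signal versus DMSO baseline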
How it was run: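 T47D-derived receptor preparation, cell-free, with tritiated or iodinated radioligand displacement measured by scintillation 18 h post-dosing. Single 25 uM duplicate screen, then concentration series; signal loss relative to DMSO.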

[11] = target: human Thyroid Receptor Alpha (TRa), THRA (gene 7067) (UniProt P10827); assay: NVS_NR_hTRa_Antagonist: NovaScreen (NVS) Nuclear Receptor Binding Assay for human Thyroid Receptor Alpha Antagonism (TRa) (AID 2283362)
How it was run: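 Chemicals were first screened in duplicate at 25 uM, then actives were retested in concentration series. Binding to the extracted receptor was measured 1 h after dosing by AlphaLISA chemiluminescence, with decreased signal versus DMSO scored as activity.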

[12] = target: Glucocorticoid receptor (Homo sapiens) (UniProt P04150); assay: NVS_NR_hGR: NovaScreen (NVS) Nuclear Receptor Binding Assay for human Glucocorticoid Receptor (GR) (AID 2283363);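 as to AC50: activity is loss of specific radioligand binding signal relative to DMSO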
How it was run: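 Competitive displacement of a labelled ligand was measured on cell-free receptor preparations after 16 h exposure. Initial testing used 25 uM in duplicate with plate controls; confirmed actives went into concentration series.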

[13] = system: guinea pig Dopamine Transporter (DAT), gene 100714898; assay: NVS_TR_gDAT: NovaScreen (NVS) Transporter Assay for guinea pig Dopamine Transporter (DAT) (AID 2283369);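 also: active compounds lower bound radioligand signal relative to DMSO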
How it was run: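 Test chemicals were incubated 2 h with guinea pig striatal membranes and a radioligand; bound label was separated by filtration and counted. Screening ran at 25 uM, followed by concentration-response testing to a 50 uM maximum.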

[14] = target: Peroxisome proliferator-activated receptor gamma (Homo sapiens) (UniProt P37231); assay: NVS_NR_hPPARg: NovaScreen (NVS) Nuclear Receptor Binding Assay for human Peroxisome Proliferator-activated Receptor gamma (PPARg) (AID 2283370)
How it was run: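 Fluorescence polarization measures competitive binding to extracted PPARg in a cell-free format. Reading is taken at 2 h; activity is signal loss relative to DMSO. Screening at 25 uM in duplicate preceded confirmatory dose series.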

[15] = target: human Dopamine Transporter (DAT), SLC6A3 (gene 6531) (UniProt Q01959); assay: NVS_TR_hDAT: NovaScreen (NVS) Transporter Assay for human Dopamine Transporter (DAT) (AID 2283374);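 also: activity means loss of bound radioligand signal relative to DMSO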
How it was run: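 Test chemicals were first screened in duplicate at 25 uM, with actives retested as concentration series. Displacement of a specific radioligand from cell-free human dopamine transporter was measured after 1 h by filtration and scintillation counting.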

[16] = target: Norway rat Vesicular Monoamine Transporter (VMAT2), neurotransmitter transporter, Slc18a2 (gene 25549) (UniProt Q01827); assay: NVS_TR_rVMAT2: NovaScreen (NVS) Transporter Assay for Norway rat Vesicular Monoamine Transporter (VMAT2), neurotransmitter transporter (AID 2283376);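 also: actives lower the bound radioligand signal below the DMSO level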
How it was run: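 Tissue: rat forebrain extract. Format: competitive radioligand binding, cell-free. Timepoint: 1 h. Readout: filter radiodetection/scintillation. Screen: 25 uM in duplicate, then concentration series for actives. Baseline: DMSO.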

[17] = target: T1, Estrogen receptor (Homo sapiens) + Estrogen receptor beta (Homo sapiens); assay: OT_ER_ERaERb_0480: Odyssey Thera (OT) 8-hour HEK293T Protein-Complementation Assay for Estrogen Receptor-alpha/-beta Heterodimer (AID 2283352)
How it was run: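 Increase in mean fluorescence intensity, measured by laser scanning plate cytometry, reported ER-alpha/ER-beta LBD complementation in HEK293T cells after 8 h chemical exposure. DMSO served as baseline; basal signal is low, punctate and cytoplasmic.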

[18] = target: Bile acid receptor (Homo sapiens) (UniProt Q96RI1); assay: NVS_NR_hFXR_Antagonist: NovaScreen (NVS) Nuclear Receptor Binding Assay for human Farnesoid X Receptor Antagonism (FXR) (AID 2283350)
How it was run: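 Cell-free TR-FRET ligand-binding read-out on human FXR (NR1H4) in antagonist mode, measured 1 h after dosing. Primary screen in duplicate at 25 uM, actives retested in concentration series; signal loss scored versus DMSO.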

[19] = target: rat Androgen Receptor (AR), Ar (gene 24208) (UniProt P15207); assay: NVS_NR_rAR: NovaScreen (NVS) Nuclear Receptor Binding Assay for rat Androgen Receptor (AR) (AID 2283366)
How it was run: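 Cell-free radioligand binding on extracts of prostate from testosterone-pretreated rats, read by filter-based scintillation counting 18 h after dosing. Loss of bound signal fitted positively versus DMSO; primary screen in duplicate at 25 uM, actives followed up in concentration series.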

Measured: AC50

ClP(Cl)c1ccccc1
active: [2] 4.94 µM | [6] 0.0841 µM
inactive: [1] | [3] | [4] | [5]

O=C(Cl)Oc1ccccc1
inactive: [7]

O=[P+](Oc1ccccc1)Oc1ccccc1
inactive: [1] | [2] | [8] | [9] | [10]
active: [6] 25 µM

CC(C)OP(=S)(OC(C)C)SCCNS(=O)(=O)c1ccccc1
inactive: PGR (gene 5241) | [11] | [14]
active: PGR (gene 5241) 2.61 µM | [12] 1.79 µM and 2.33 µM and 2.63 µM | [5] 2.52 µM | [13] 3.98 µM and 3 µM | [15] 25 µM and 602 nM | [16] 832 nM and 13 µM and 6.28 µM

CN(C(=O)Cc1cccc2occc12)[C@H]1CC[C@@]2(CCCO2)C[C@@H]1N1CCCC1
inactive: [1] | [2] | [17] | [3] | [4] | [12]

CC(C)CCCCCCCOP(OCCCCCCCC(C)C)Oc1ccccc1
inactive: [1] | [2] | [17] | [3] | [4]

O=C1C2CC=CCC2C(=O)N1SC(Cl)(Cl)C(Cl)Cl (stereo not drawn)
inactive: [18] | [10]
active: [8] 9.1 µM

Cc1cc([N+](=O)[O-])cc([N+](=O)[O-])c1O
active: [8] 73.6 µM
inactive: [9] | [19] | [14] | [16] | [10]

O=C(Cl)OCCOC(=O)Cl
inactive: [7]
